{"sequences": {"note": "By UniProt entry, the sequences of proteins in these tests, tags left out. Residues count along the entry.", "UniProt P03956, 100-469 limits assumed": "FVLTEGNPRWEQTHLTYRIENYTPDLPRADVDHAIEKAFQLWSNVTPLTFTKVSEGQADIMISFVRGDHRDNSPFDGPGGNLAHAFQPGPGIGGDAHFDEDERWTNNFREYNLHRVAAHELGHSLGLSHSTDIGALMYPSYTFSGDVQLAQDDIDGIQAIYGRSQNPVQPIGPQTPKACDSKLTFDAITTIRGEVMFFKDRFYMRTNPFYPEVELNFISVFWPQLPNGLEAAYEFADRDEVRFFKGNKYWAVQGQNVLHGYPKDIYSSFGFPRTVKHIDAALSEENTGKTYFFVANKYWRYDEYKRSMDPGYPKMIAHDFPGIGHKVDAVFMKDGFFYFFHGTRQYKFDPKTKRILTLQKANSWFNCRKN"}, "source": "patent US4511504A", "about": "“Carboxyalkyl peptide derivatives” (G.D. Searle & Co., priority 1983, dated 1985)", "molecular_target": "Human Rheumatoid Synovial Collagenase (Homo sapiens, UniProt P03956)", "assay": "Collagenase inhibition, procedure of Cawston and Barrett (acetyl 14C collagen hydrolysis)", "details": "read-out: IC50 (μM) Human Rheumatoid Synovial Collagenase; inhibitor concentration effecting 50% inhibition; 37° C., 16 hours, native acetyl 14C collagen, Tris HCl-CaCl2 pH 7.6; tested form: hydrate", "experimental": "This was determined following the procedure of Cawston and Barrett, Anal. Biochem., 99, 340-345 (1979) whereby the 1 mM of the inhibitor being tested or dilutions thereof are incubated at 37° C. for 16 hours with native collagen and collagenase (buffered with Tris HCl--CaCl2; pH 7.6). The collagen is acetyl ^14 C collagen. The samples are centrifuged to sediment undigested collagen and an aliquot of the radiactive supernatant removed for assay on a scintillation counter as a measure of hydrolysis. The collagenase activity in the presence of 1 mM inhibitor, or a dilution thereof is compared to activity in a control devoid of inhibitor and the results reported as that inhibitor concentration effecting 50% inhibition of the collagenase.", "data": [{"compound": "CNC(=O)[C@H](Cc1ccc(OC)cc1)NC(=O)[C@H](CC(C)C)N[C@H](CCNC(=O)NCc1ccccc1)C(=O)O", "values": [{"measurement": "IC50", "result": 1.3, "unit": "µM"}]}]}
